Laboratory results reported in ChEMBL document CHEMBL5126521, “Analgesic Opioid Ligand Discovery Based on Nonmorphinan Scaffolds Derived from Natural Sources” (J Med Chem, 2022).

Sequences of proteins named here, by UniProt entry; tags and fusion partners are left off.
UniProt P35372, whole entry: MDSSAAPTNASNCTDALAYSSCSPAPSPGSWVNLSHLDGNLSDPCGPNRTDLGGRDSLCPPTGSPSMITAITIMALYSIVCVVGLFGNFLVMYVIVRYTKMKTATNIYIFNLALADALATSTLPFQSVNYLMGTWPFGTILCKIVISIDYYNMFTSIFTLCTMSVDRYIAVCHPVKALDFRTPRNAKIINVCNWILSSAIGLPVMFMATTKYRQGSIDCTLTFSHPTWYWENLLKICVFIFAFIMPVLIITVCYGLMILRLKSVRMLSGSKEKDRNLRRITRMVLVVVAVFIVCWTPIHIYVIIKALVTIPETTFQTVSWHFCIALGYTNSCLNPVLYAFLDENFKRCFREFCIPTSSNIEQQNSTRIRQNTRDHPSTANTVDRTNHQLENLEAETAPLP

Target: Mu-type opioid receptor (Homo sapiens, UniProt P35372)

Compound	Ki
C[C@@H](NC(=O)[C@@H](N)Cc1ccc(O)cc1)C(=O)N[C@@H](Cc1ccccc1)C(=O)NCC(=O)N[C@@H](Cc1ccc(O)cc1)C(=O)N1CCC[C@H]1C(=O)N[C@@H](CO)C(N)=O	2170 nM
C[C@@H](NC(=O)[C@@H](N)Cc1ccc(O)cc1)C(=O)N[C@@H](Cc1ccccc1)C(=O)NCC(=O)N[C@@H](Cc1ccc(O)cc1)C(=O)N1CCC[C@H]1C(=O)N[C@@H](CO)C(N)=O [DERMORPHIN]	0.54 nM
